# Values quoted from earlier work as cited in patent publication US10167258B2, “Inhibitors of mitochondrial pyruvate dehydrogenase kinase isoforms 1-4 and uses thereof” (The Board of Regents of the University of Texas System, priority 2013, dated 2019).
# Test system: Hsp90
# Conditions: read-out: IC50 for Hsp90; literature value; cited from earlier work
smiles,measurement,value
Oc1ccc(-c2n[nH]c(=S)n2-c2cccc3ccccc23)c(O)c1,IC50,300 nM
